Results from paper PMC7925596.

B1: mNeonGreen C-terminally fused to the native T3 targeting peptide [M. xanthus] / Myxococcus xanthus encapsulin (T3 encapsulin shell) [M. xanthus] (parent)
chain 1: PLTVGSLRRGG
chain 2: MPDFLGHAENPLREEEWARLNETVIQVARRSLVGRRILDIYGPLGAGVQTVPYDEFQGVSPGAVDIVGEQETAMVFTDARKFKTIPIIYKDFLLHWRDIEAARTHNMPLDVSAAAGAAALCAQQEDELIFYGDARLGYEGLMTANGRLTVPLGDWTSPGGGFQAIVEATRKLNEQGHFGPYAVVLSPRLYSQLHRIYEKTGVLEIETIRQLASDGVYQSNRLRGESGVVVSTGRENMDLAVSMDMVAAYLGASRMNHPFRVLEALLLRIKHPDAICTLEGAGATERR

Variants of: B1
Assay: bulk fluorescence measurement of purified encapsulins loaded with mNeonGreen-TP cargo
Conditions: parent: 100, read off a plot

percent of parent [%] | Variant
15 | chain 1 PLTVGSLRRWG [chain 1 G10W]
18 | chain 1 PLTVGSLRAGG [chain 1 R9A]
